What was measured:
MPL = target: T1, MPL (Homo sapiens, UniProt P40238); assay: Assay to detect expression of antigens on target cells: binding of 161-GGSG-NLuc-AcV5 supernatant (NLuc activity)
T1 construct: endogenous in cells; host or cells: Jurkat, K562, RAJI, RS411 and HEL.92.1.7 cells (Gluc-expressing), carrying empty vector or human c-MPL cDNA
T1 sequence (P40238 26-635): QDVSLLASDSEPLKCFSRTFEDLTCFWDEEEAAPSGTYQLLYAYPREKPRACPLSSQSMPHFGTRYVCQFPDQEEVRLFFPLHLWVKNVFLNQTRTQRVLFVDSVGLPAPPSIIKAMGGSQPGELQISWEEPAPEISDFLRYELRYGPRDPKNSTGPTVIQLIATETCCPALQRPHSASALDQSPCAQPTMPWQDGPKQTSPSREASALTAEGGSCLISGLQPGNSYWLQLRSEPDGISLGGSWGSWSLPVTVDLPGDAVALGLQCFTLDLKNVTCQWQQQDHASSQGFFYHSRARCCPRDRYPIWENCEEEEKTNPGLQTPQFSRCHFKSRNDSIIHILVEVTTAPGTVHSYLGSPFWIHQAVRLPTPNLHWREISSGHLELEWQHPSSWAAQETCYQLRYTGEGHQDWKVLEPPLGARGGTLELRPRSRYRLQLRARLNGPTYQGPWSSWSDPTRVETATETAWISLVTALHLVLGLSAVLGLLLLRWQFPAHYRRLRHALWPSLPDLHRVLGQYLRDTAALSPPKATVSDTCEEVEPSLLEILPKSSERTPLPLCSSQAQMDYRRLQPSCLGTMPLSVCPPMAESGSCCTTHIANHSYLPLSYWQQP
Description: Both CD19 and MPL (also known as Thrombopoietin receptor or TPO-R) are expressed on hematopoietic cells but show differential expression in cells of different lineages. FMC63 is a well characterized mouse monoclonal antibody that specifically recognizes human CD19. Similarly, 161 (also designated as 1.6.1) is a monoclonal antibody that recognizes human MPL and is described in U.S. patent application US 2012/0269814 A1. We generated a FMC63 single chain Fv (scFv) fragment based on the known sequence of FMC63 vL and vH fragments. The cDNA encoding FMC63 scFv fragment consisted from 5′ to 3′ ends a nucleotide sequences encoding a signal peptide derived from human CD8 molecule, FMC63 vL fragment, a (Gly4Ser)x3 linker and FMC63-vH fragment. The cDNA encoding the FMC63 scFv fragment was then fused in-frame at its 3′ end to cDNA encoding AcV5-tagged NLuc through a Gly-Gly-Ser-Gly (SEQ ID NO:3571) linker to generate FMC63-GGSG-NLuc. The resulting fragment was then cloned down-stream of the human EF1α promoter into the lentiviral vector pLenti-EF1α (SEQ ID NO: 905) to make the construct Plenti-EF1a-FMC63(vL-vH)-GGSG-NLuc-AcV5-U09. The DNA and PRT sequences of the insert fragment are provided in SEQ ID NO: 923 and SEQ ID NO: 2668, respectively. A construct encoding 161-GGSG-NLuc was similarly generated using the vL and vH fragment of 1.6.1 monoclonal antibody against MPL. The DNA and PRT sequences of the insert fragment are provided in SEQ ID NO: 924 and SEQ ID NO: 2669, respectively. The pLenti-EF1a-FMC63(vL-vH)-GGSG-NLuc-AcV5 and pLenti-EF1a-161(vL-vH)-GGSG-NLuc-AcV5 plasmids were transfected into 293FT cells by calcium phosphate co-precipitation method. Approximately 20h post-transfection, the cell culture media was replaced with XVIVO medium. The conditioned media containing the secreted FMC63(vL-vH)-GGSG-NLuc-AcV5 (also referred to as FMC63-GGSG-NLuc-AcV5) and 161(vL-vH)-GGSG-NLuc-AcV5 (also referred to as 161-GGSG-NLuc-AcV5) proteins was collected 48-72h later.
The supernatant containing FMC63-GGSG-NLuc-AcV5 and 161-GGSG-NLuc-AcV5 proteins were used to detect the expression of CD19 and MPL on the surface of Jurkat, K562, RAJI, RS-4-11 (RS411) and HEL.92.1.7 (HEL) cells that had been engineered to express a c-MPL cDNA by transducing these cells with a lentiviral vector expressing human c-MPL cDNA or an empty vector. The cells also expressed a humanized Gluc cDNA lacking its signal peptide. The vector- and MPL-expressing Jurkat-Gluc, K562-Gluc, HEL.92.1.7-Gluc, RAJI-Gluc and RS411-Gluc cells were incubated with the FMC63-GGSG-NLuc-AcV5 and 161-GGSG-NLuc-AcV5 supernatants at 4° C. for 1h followed by extensive washings with cold PBS supplemented with 0.1% BSA. […] NLuc assay buffer containing native coelenterazine (CTZ) as NLuc substrate (30 μl/well of native coelenterazine diluted in PBS) was added to each well by an automatic dispenser in a well mode using a BioTek synergy H4 plate reader and light emission as a measure of NLuc activity was measured.

[1] = tested on: RAJI xenograft model of lymphoma; assay: In vivo efficacy of CAR-T cells, RAJI xenograft model of lymphoma in NSG mice (Table 27); parameters: species or system mouse; conditions: IL-7 200 ng/mouse i.p. three times from 1 day after CAR-T cells, versus saline
Procedure: NSG mice (Jackson Lab) were sub-lethally irradiated at a dose of 175 cGy. 24 hours post irradiation (day2), mice were injected with 2.5×10^4 RAJI cells via tail-vein. […] Control mice (n=5) were injected with 1 million T cells expressing the CD8SP-KSHV-4C3-(vL-vH)-Myc-BBz-T2A-PAC(042315-N01)[SEQ ID NO:1643] CAR or given no T cells. […] The median survival of mice given RAJI cells alone and CD8SP-KSHV-4C3-(vL-vH)-Myc-BBz-T2A-PAC(042315-N01)[SEQ ID NO:1643]CAR-T cells were 17 days and 21 days respectively. In contrast, the median survival of mice which received CD8SP-2-CD19MM-(vL-vH)-Myc-BBz-T2A-PAC(062915-D03)[SEQ ID NO:1471] CAR-T cells with and without puromycin selection were 26 and 30 days, respectively. […] CAR-T cells with and without puromycin selection were 30 and 31 days, respectively.
NSG mice (Jackson Lab) were sub-lethally irradiated at a dose of 175 cGy. 24 hours post irradiation (day2), mice were injected with 2.5×10^4 RAJI cells via tail-vein. On day3, the mice (n=3 for each group) were treated with 1 million T cells that had been infected with the CAR encoding lentiviruses.
Human peripheral blood T cells will be isolated using CD3 magnetic beads and infected with lentiviruses expressing the CAR constructs (SEQ ID NO: 11 1614-1B05) targeting CD 19. […] NSG mice (Jackson Lab) will be sub-lethally irradiated at a dose of 175 cGy. 24 hours post irradiation (day2), mice will be injected with 2.5×10^4 RAJI cells via tail-vein. On day 3, the mice (n=5 for each group) will be treated with 5 million T cells that had been infected with the indicated CAR encoding lentiviruses and expanded in the absence or presence of PF-04691502. Control mice (n=5) will be injected with 5 million uninfected T cells. Mice are given human IL2 (400 IU i.p.) on alternate days till the death of all mice in control group.

B1: 161-GGSG-NLuc-AcV5: scFv of 1.6.1 monoclonal antibody against MPL fused to AcV5-tagged NLuc (protein)
chain: MALPVTALLLPLALLLHAARPDDIQMTQSSSSFSVSLGDRVTITCMASEDIYIRLAWYQQKPGNAPRLLISAATSLETGVPSRFSGSGSGKDYTLSITSLQTEDVGTYYCQQYWSSPWTFGGGTKLEINGGGGSGGGGSGGGGSDVQLQESGPGLVKPSQSLSLTCTVTGYSITSDYTWNWIRQFPGNKLEWMGYITYSGSTSYNPSLKSRNSITRDTSKNQFFLQLNSVTTEDTATYYCARLGRRYTMDYWGQGTSVTVSSTRGGSGVFTLEDFVGDWRQTAGYNLDQVLEQGGVSSLFQNLGVSVTPIQRIVLSGENGLKIDIHVIIPYEGLSGDQMGQIEKIFKVVYPVDDHHFKVILHYGTLVIDGVTPNMIDYFGRPYEGIAVFDGKKITVTGTLWNGNKIIDERLINPDGSLLFRVTINGVTGWRLCERILASWKDASGWS
modifications: listed as DNA
notes: scFv of 1.6.1 monoclonal antibody against MPL fused to AcV5-tagged NLuc
**Q.** Which results are given for B1?
**A.** binding (NLuc activity) (MPL; HEL.92.1.7-Gluc-MPL cells, versus vector cells): modest increase; binding (NLuc activity) (MPL; HEL.92.1.7-Gluc-vector cells): strong binding; binding (NLuc activity) (MPL; Jurkat, RAJI and RS411 cells upon ectopic expression of MPL): modestly increased; binding (NLuc activity) (MPL; K562-MPL cells, versus K562-vector): significantly increased; binding (NLuc activity) (MPL; K562-vector cells): weak but stronger binding; binding (NLuc activity) (MPL; vector-expressing Jurkat, RAJI and RS411 cells): very weak binding

B2: IL-7: exogenous recombinant human IL-7 (protein, UniProt P13232 26-177, looked up)
Interleukin-7: DCDIEGKDGKQYESVLMVSIDQLLDSMKEIGSNCLNNEFNFFKRHICDANKEGMFLFRAARKLRQFLKMNSTGDFDLHLLKVSEGTTILLNCTGQVKGRKPAALGEAQPTKSLEENKSLKEQKKLNDLCFLKRLLQEIKTCWNKILMGTKEH
**Q.** For B2, which “tumor rejection and survival” value [1] is on record?
**A.** expected to reject their tumor and survive longer

— patent US20240166755A1, “CHIMERIC ANTIGEN RECEPTORS TARGETING CANCER” (University of Southern California, priority 2016, published 2024)
